The record followed here is patent US20230218577A1, “USE OF HEAT SHOCK PROTEIN INHIBITORS FOR THE TREATMENT OF NEURODEVELOPMENTAL DISORDERS” (The Children's Medical Center Corporation, priority 2020, published 2023).

This assay deals with mTORC1 activity (pS6) in Tsc2-sh hippocampal neurons. The assay is described as follows: mTORC1 high-content screen (mTORC1^HCA) with the Biomol collection library.
Where [1] appears, read: Z-score of percent GFP+pS6+ neurons in compound-treated Tsc2-knockdown wells, DIV20, Biomol library screen, replica 1.
The mark [2] stands for this setting: Z-score of percent GFP+pS6+ neurons in compound-treated Tsc2-knockdown wells, DIV20, Biomol library screen, replica 2.

Read-outs that look alike come from different tables or passages of the source. Numbered stars: 1 amine (or outer) side, 2 acyl side, 3 side chain; on linkers, the order of the positions; unused ones are H or OH. Bridge positions count the residues as written; N and C are the ends. Square brackets hold non-standard residues; d marks the D form. Peptide text beside a SMILES is read from it. I, II: the chains in the order shown. * marks the point of attachment. Actinocin(9to1) = Cc1c2oc3c(C)ccc(C(=O)[*:1])c3nc-2c(C(=O)[*:2])c(N)c1=O; NMeV = CN[C@H](C(=O)O)C(C)C; Sar = CNCC(=O)O; CH2Cl = ClC*

Regarding `CCCCC/C=C\C=C\[C@@H](O)CCCCCCCC(=O)O` [9(S)-HODE], the “T2 Zscore (Replica 1)” value came out at 0.2881 and the “T2 Zscore (Replica 2)” value stood at 0.4475.

`CCCCC/C=C\C=C\[C@H](CCCCCCCC(=O)O)OO` [9(S)-HPODE]: the “T2 Zscore (Replica 1)” value was −0.1465 and the “T2 Zscore (Replica 2)” value is recorded as −0.3361.

Turning to `CCCCCCCC/C=C\CCCCCCCC(N)=O` [9,10-Octadecenoamide], the “T2 Zscore (Replica 1)” value was −0.1881 and the “T2 Zscore (Replica 2)” value came to 0.6079.

On to `CC1=C(/C=C/C(C)=C\C=C\C(C)=C\C(=O)O)C(C)(C)CCC1` [9-cis Retinoic acid], for which the “T2 Zscore (Replica 1)” value under setting [1] came out at 1.135. The “T2 Zscore (Replica 2)” value under setting [2] is on record as −0.4761.

For the molecule `CCCCC[C@H](O)/C=C/[C@@H]1[C@@H](C/C=C\CCCC(=O)O)[C@@H](O)C[C@@H]1O` [9a, 11b-Prostaglandin F2], the “T2 Zscore (Replica 1)” value worked out at 0.356 and the “T2 Zscore (Replica 2)” value is given as −0.1986.

As for `CCCCC[C@H](O)/C=C/[C@@H]1[C@@H](C/C=C\CCCC(=O)O)[C@H](O)C[C@H]1O` [9b, 11a-Prostaglandin F2], the “T2 Zscore (Replica 1)” value was −0.2089 and the “T2 Zscore (Replica 2)” value is given as −1.16.

As for `CC[C@@]1(O)C(=O)OCc2c1cc1n(c2=O)Cc2cc3cc(O)ccc3nc2-1` [10-hydroxycamptothecin], the “T2 Zscore (Replica 1)” value was −0.7172 and the “T2 Zscore (Replica 2)” value was −1.673.

For `CCCCC/C=C\C[C@H](O)/C=C/C=C\C/C=C\CCCC(=O)O` [12(S)-HETE], the “T2 Zscore (Replica 1)” value came out at 0.9663 and the “T2 Zscore (Replica 2)” value is 1.194.

On to `CCCCC/C=C\C[C@@H](/C=C/C=C\C/C=C\CCCC(=O)O)OO` [12(S)-HPETE], for which the “T2 Zscore (Replica 1)” value is 0.5522 and the “T2 Zscore (Replica 2)” value is 0.007363.

In the case of `COCCCCCCCCCCCC(=O)O` [12-Methoxydodecanoic acid], the “T2 Zscore (Replica 1)” value under setting [1] stood at 0.6379. Besides, the “T2 Zscore (Replica 2)” value under setting [2] is 0.5946.

Turning to `CCCCC[C@H](O)/C=C/C=C\CCCCCCCC(=O)O` [13(S)-HODE], the “T2 Zscore (Replica 1)” value is listed as 1.518 and the “T2 Zscore (Replica 2)” value is −0.5985.

With `CCCCC[C@@H](/C=C/C=C\CCCCCCCC(=O)O)OO` [13(S)-HPODE], the “T2 Zscore (Replica 1)” value turned out to be 0.2882 and the “T2 Zscore (Replica 2)” value is reported as −1.527.

As for `CCCCC[C@H](O)CC[C@H]1[C@H](O)CC(=O)[C@@H]1CCCCCCC(=O)O` [13,14-Dihydro-PGE1], the “T2 Zscore (Replica 1)” value amounted to 0.6117 and the “T2 Zscore (Replica 2)” value came out at 0.8897.

For `CCCCCC(=O)/C=C/C=C\CCCCCCCC(=O)O` [13-Keto-octadeca-9Z,11E−dienoic acid], under setting [1], the “T2 Zscore (Replica 1)” value worked out at 0.2654. For the same molecule, the “T2 Zscore (Replica 2)” value under setting [2] was −0.0627.

Take `CC1=C(/C=C/C(C)=C/C=C/C(C)=C\C(=O)O)C(C)(C)CCC1` [13-cis retinoic acid]: the “T2 Zscore (Replica 1)” value under setting [1] was found to be 0.296. In addition, the “T2 Zscore (Replica 2)” value under setting [2] is −0.01693.

Consider `CCCCC[C@H](O)/C=C/C=C\C/C=C\C/C=C\CCCC(=O)O` [15(S)-HETE], for which the “T2 Zscore (Replica 1)” value is listed as −0.8769 and the “T2 Zscore (Replica 2)” value is listed as −0.1922.

In the case of `CCCCC[C@@H](/C=C/C=C\C/C=C\C/C=C\CCCC(=O)O)OO` [15(S)-HPETE], the “T2 Zscore (Replica 1)” value was −0.01728 and the “T2 Zscore (Replica 2)” value came out at 0.6446.

As for `CCCCC(C)(C)C(O)C=CC1C(O)CC(=O)C1CC=CCCCC(=O)O` (stereo not shown) [16,16-Dimethyl-prostaglandin E2], the “T2 Zscore (Replica 1)” value under setting [1] stood at 0.605. The “T2 Zscore (Replica 2)” value under setting [2] is given as −0.1035.

Turning to `O=C(O)CCC/C=C\C[C@H]1C(=O)C[C@@H](O)[C@@H]1/C=C/[C@@H](O)CCc1ccccc1` [17-Phenyl-trinor-prostaglandin E2], the “T2 Zscore (Replica 1)” value worked out at 0.2394 and the “T2 Zscore (Replica 2)” value was −0.07446.

For `CC(C)[C@@H](O)CC[C@@H](C)[C@H]1CC[C@H]2[C@@H]3CC=C4C[C@@H](O)CC[C@]4(C)[C@H]3CC[C@]12C` [24(S)-hydroxycholesterol], the “T2 Zscore (Replica 1)” value is −0.4822 and the “T2 Zscore (Replica 2)” value was −0.1125.

As for `C=C1CCC(O)C/C1=C\C=C1\CCCC2(C)C1CCC2C(C)CCC(O)C(C)(C)O` (stereo not shown) [24,25-Dihydroxyvitamin D3], the “T2 Zscore (Replica 1)” value worked out at 0.5307 and the “T2 Zscore (Replica 2)” value stood at 0.06636.

In the case of `C=C1/C(=C\C=C2/CCC[C@]3(C)[C@@H]([C@H](C)CCCC(C)(C)O)CC[C@@H]23)C[C@@H](O)C[C@@H]1O` [25-Dihydroxyvitamin D3], the “T2 Zscore (Replica 1)” value was 0.7998 and the “T2 Zscore (Replica 2)” value came to 2.01.

On to `CC(N)=NCc1cccc(CN)c1.Cl.Cl` [1400W•2HCl], for which the “T2 Zscore (Replica 1)” value is listed as −0.5593 and the “T2 Zscore (Replica 2)” value is on record as −0.3175.

As to `CCCCC/C=C\C/C=C\C/C=C\C/C=C\CCCC(=O)N[C@H](C)CO` [(R)-(+)-Methandamide], the “T2 Zscore (Replica 1)” value amounted to 0.1139 and the “T2 Zscore (Replica 2)” value is reported as 0.7185.

As for `CC(C)NC[C@H](O)COc1cccc2ccccc12.Cl` [(S)-(−)-propranolol • HCl], the “T2 Zscore (Replica 1)” value under setting [1] worked out at 0.8998. Further, under setting [2], the “T2 Zscore (Replica 2)” value stood at 0.4738.

Turning to `CNc1ccc2oc(C[C@H]3O[C@@]4(CC[C@H]3C)O[C@H]([C@H](C)C(=O)c3ccc[nH]3)[C@H](C)C[C@H]4C)nc2c1C(=O)O` [A-23187], the “T2 Zscore (Replica 1)” value is 1.014 and the “T2 Zscore (Replica 2)” value came out at 0.5039.

As for `CC1=C(C)C(=O)C(CCCCC#CCCCC#CCO)=C(C)C1=O` [AA-861], the “T2 Zscore (Replica 1)” value under setting [1] is 0.5924. For the same molecule, the “T2 Zscore (Replica 2)” value under setting [2] is listed as 0.5603.

`O=C(NCc1ccncc1)C12CC3CC(C1)CC(c1ccc(Cl)cc1)(C3)C2` [ABC294640]: the “T2 Zscore (Replica 1)” value under setting [1] was determined as 0.7311. Besides, the “T2 Zscore (Replica 2)” value under setting [2] came to 0.4836.

Consider `N#C/C(=C\c1ccc(O)c(O)c1)C(N)=S` [AG213 (Tyrphostin 47)], for which the “T2 Zscore (Replica 1)” value is reported as 0.5831 and the “T2 Zscore (Replica 2)” value is 0.9203.

Consider `COc1cc2ncnc(Nc3cccc(Cl)c3)c2cc1OC` [AG1478], for which the “T2 Zscore (Replica 1)” value is 0.1566 and the “T2 Zscore (Replica 2)” value is listed as −1.114.

Turning to `N#CC(=Cc1ccc2[nH]ccc2c1)C(N)=C(C#N)C#N` [AG-370], the “T2 Zscore (Replica 1)” value was −3.069 and the “T2 Zscore (Replica 2)” value is −1.459.

For `N#C/C(=C/c1ccc(O)c(O)c1)C(=O)NCc1ccccc1` [AG-490], the “T2 Zscore (Replica 1)” value is on record as 0.3683 and the “T2 Zscore (Replica 2)” value was found to be 0.6139.

In the case of `CC(C)(C)c1cc(/C=C(\C#N)C(N)=S)cc(C(C)(C)C)c1O` [AG-879], the “T2 Zscore (Replica 1)” value was 0.7316 and the “T2 Zscore (Replica 2)” value is on record as −0.9815.

Take `COc1cc2ncc(-c3ccccc3)nc2cc1OC` [AG-1296]: the “T2 Zscore (Replica 1)” value was determined as 0.1248 and the “T2 Zscore (Replica 2)” value is given as 0.3123.

For the molecule `CN(CCc1ccc(Cl)c(Cl)c1)CC(O)COc1ccc(NS(C)(=O)=O)cc1.Cl` (stereo not shown) [AM 92016 • HCl], the “T2 Zscore (Replica 1)” value was 0.4686 and the “T2 Zscore (Replica 2)” value is given as −0.2407.

In the case of `Cc1c(C(=O)NN2CCCCC2)nn(-c2ccc(Cl)cc2Cl)c1-c1ccc(I)cc1` [AM-251], the “T2 Zscore (Replica 1)” value is −0.31 and the “T2 Zscore (Replica 2)” value turned out to be 0.1132.

As to `CC1(C)CCC(C)(C)c2cc(C(=O)Nc3ccc(C(=O)O)cc3)ccc21` [AM-580], the “T2 Zscore (Replica 1)” value is listed as −0.2813 and the “T2 Zscore (Replica 2)” value is given as −0.2561.

Turning to `CCN1C[C@]2(COC)[C@H](O)C[C@H](OC)[C@@]34[C@@H]5C[C@@]6(O)[C@H](OC(=O)c7ccccc7)[C@@H]5[C@@](OC(C)=O)([C@@H]([C@H](OC)[C@H]23)[C@@H]14)[C@@H](O)[C@@H]6OC` [Aconitine], the “T2 Zscore (Replica 1)” value was 1.129 and the “T2 Zscore (Replica 2)” value amounted to 1.17.

Take `Cc1c2oc3c(C)ccc(C(=O)N[C@@H]4C(=O)N[C@H](C(C)C)C(=O)N5CCC[C@H]5C(=O)N(C)CC(=O)N(C)[C@@H](C(C)C)C(=O)O[C@@H]4C)c3nc-2c(C(=O)N[C@@H]2C(=O)N[C@H](C(C)C)C(=O)N3CCC[C@H]3C(=O)N(C)CC(=O)N(C)[C@@H](C(C)C)C(=O)O[C@@H]2C)c(N)c1=O` [Actinomycin D] (I: T[dV]P[Sar][NMeV] / II: T[dV]P[Sar][NMeV]; ester I:1-I:C, II:1-II:C; linker I:N-II:N via Actinocin(9to1)): the “T2 Zscore (Replica 1)” value is reported as −1.647 and the “T2 Zscore (Replica 2)” value was −1.523.

On to `CCCCC/C=C\C/C=C\C/C=C\C/C=C\CCCCCC(=O)O` [Adrenic acid (22:4, n-6)], for which the “T2 Zscore (Replica 1)” value was −0.259 and the “T2 Zscore (Replica 2)” value is listed as −0.347.

Regarding `C[C@H](N)C(=O)N[C@@H](C)C(=O)N[C@@H](Cc1ccccc1)C(=O)CCl` [Ala-Ala-Phe-CMK] (H-Ala-Ala-Phe-CH2Cl), the “T2 Zscore (Replica 1)” value came out at 1.366 and the “T2 Zscore (Replica 2)” value was 0.2566.

As for `CC1=C(/C=C/C(C)=C/C=C/C(C)=C/C(=O)O)C(C)(C)CCC1` [All trans retinoic acid], the “T2 Zscore (Replica 1)” value under setting [1] was −0.2511. Also, the “T2 Zscore (Replica 2)” value under setting [2] was determined as 0.7501.

For the molecule `O=C(O)CN1C(=O)c2cccc3cccc(c23)C1=O` [Alrestatin], the “T2 Zscore (Replica 1)” value (Z-score of percent GFP+pS6+ neurons in compound-treated Tsc2-knockdown wells, DIV20, Biomol library, replica 1) is 0.8307. Further, the “T2 Zscore (Replica 2)” value (Z-score of percent GFP+pS6+ neurons in compound-treated Tsc2-knockdown wells, DIV20, Biomol library, replica 2) was 2.016.

`CCCCC/C=C\C/C=C\CCCCCCCC(=O)NCCO` [Anandamide (18:2,n-6)]: the “T2 Zscore (Replica 1)” value is −0.01301 and the “T2 Zscore (Replica 2)” value was −0.05125.

As for `CCCCC/C=C\C/C=C\C/C=C\CCCCCCC(=O)NCCO` [Anandamide (20:3,n-6)], the “T2 Zscore (Replica 1)” value was 0.6092 and the “T2 Zscore (Replica 2)” value is 2.082.

Regarding `CCCCC/C=C\C/C=C\C/C=C\C/C=C\CCCC(=O)NCCO` [Anandamide (20:4, n-6)], the “T2 Zscore (Replica 1)” value was 0.08599 and the “T2 Zscore (Replica 2)” value was determined as 0.05658.

Turning to `CCCCC/C=C\C/C=C\C/C=C\C/C=C\CCCCCC(=O)NCCO` [Anandamide (22:4,n-6)], the “T2 Zscore (Replica 1)” value was found to be 0.7562 and the “T2 Zscore (Replica 2)” value was determined as 0.2051.
